The subject of data set [1] is ovarian carcinoma (pdOVCA1). The experiment in a line: in vivo biological activity, pdOVCA1 inoculated i.p. in SCID mice. The settings on record: treatment at 7th, 14th, 21st day, 1,000 U/ml. The method, then:
The experiments were carried out using the cell line of ovarian carcinoma (pdOVCA1) (sensitive to the antiproliferative action of IFN) inoculated i.p. in mice belonging to the group SCID F, 3×10^6 cells/mouse. The experiment was effected using 3 distinct groups of animals, 6 mice per group:
1st group: treatment at the 7th, 14th and 21st day with recombinant human Interferone alpha 2a (IFN) at a concentration of 1,000 U/ml, as positive control;
2nd group: treatment at the 7th,14th and 21st day with the bioconjugate object of the present invention (HA-IFN) prepared as described in Example 3, at a concentration of 1,000 U/ml as equivalent IFN unit;
3rd group; represents the non-pharmacologically treated control but only inoculated with pdOVCA1s.

For data set [2], the system named is human primary cell line of ovarian carcinoma (pdOVCA1). The experiment in a line: ATPlite cytotoxicity test, cell vitality. Type of data set: cell-based. The settings on record: pdOVCA1, 5 days incubation; 1,000, 500, 250 U/ml IFN equivalent; HA 323.5, 162.75, 81.375 μg/ml. The procedure: The determination of the biological activity of the HA-IFN conjugate was effected by means of a method prepared ad hoc.
The experiments were carried out on a human primary cell line of ovarian carcinoma (pdOVCA1), sensitive to the antiproliferative action of IFN. The cells were seeded at a concentration of 10,000 cells/well and incubated alone and in the presence of:
HA-IFN bioconjugate prepared as in Example 3 at a concentration of 1,000, 500, 250 U/ml as equivalent IFN Unit;
Recombinant human Interferon alpha 2a at a concentration of 1,000, 500, 250 U/ml;
HA having a molecular weight of 200 kDa, i.e. the same used for preparing the conjugate, at a concentration of 323.5, 162.75, 81.375 μg/ml.
After 5 days of incubation, the cell vitality was measured via the ATPlite cytotoxicity test. The results obtained are summarized in FIG. 4, where the cell vitality is expressed in percentage with respect to the level obtained for the cells incubated alone.
Background: In ATP-based viability assays light output follows the ATP content of the culture.

The conditions of data set [3]: mouse, in vivo.

Take “recombinant human Interferon alpha 2a: recombinant human IFN alpha 2a, protein of about 20 kDa; reference drug [reference compound]”: the “statistic significance vs the non-treated control” value in data set [1] is “no statistic significance”. Besides, the “cytotoxic action (cell vitality vs cells incubated alone)” value in data set [2] is listed as “marked cytotoxic action”.

On to “HA-IFN: hyaluronic acid (200 kDa) aldehyde derivative conjugated to recombinant human interferon alpha 2a, prevalently at the N-terminal end”, for which, in data set [1], the “efficacy in vivo vs reference drug IFN” value is “greater efficacy in vivo” and the “statistic significance vs the non-treated control” value is “considerable significance”. Besides, the “cytotoxic action (cell vitality vs cells incubated alone)” value in data set [2] was “almost quantitatively maintained”.

With “labeled conjugate according to Example 6: HA-interferon alpha 2a conjugate whose protein is marked with Cy5 fluorescent probe”, in data set [3], the “biodistribution in a longer time scale” value is “vesical accumulation”; the “biodistribution, main fluorescence signal” value is “hepatic accumulation”; the “biodistribution, secondary fluorescence signal” value is given as “less intense fluorescence in the adjacent pulmonary area”.

Source of the values: patent publication US9034624B2, “Process for the synthesis of conjugates of glycosaminoglycanes (GAG) with biologically active molecules, polymeric conjugates and relative uses thereof” (FIDIA FARMACEUTICI S.P.A., priority 2009, dated 2015).
